Values of other authors as cited in EP3357492B1, “MULTILAYER TABLET FOR ADMINISTRATION OF MAGNESIUM” (S.I.I.T. S.r.l.-Servizio Internazionale Imballaggi …, priority 2017, dated 2018).

Details: in water

Solubility (g/100 g water): 19 g/100 g water
Substance: Gluconate
